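A five-concentration, 48-hour dose response in 96-well plates underlies each endpoint, interpolated linearly between surrounding concentrations. TGI: concentration producing complete growth inhibition.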
Columns and labels:
Experiment in all cases: NCI anticancer screen, dose series, 48 h
NCI-H322M lung = system: NCI-H322M lung
MDA-N = system: MDA-N
SF-539 CNS = system: SF-539 CNS
OVCAR-3 ovarian = system: OVCAR-3 ovarian
A498 renal = system: A498 renal
OVCAR-5 ovarian = system: OVCAR-5 ovarian
RPMI-8226 leukemia = system: RPMI-8226 leukemia
HOP-62 NSCLC = system: HOP-62 NSCLC
K-562 leukemia = system: K-562 leukemia
SK-MEL-5 melanoma = system: SK-MEL-5 melanoma
U251 CNS = system: U251 CNS
PC-3 prostate = system: PC-3 prostate
MCF7 breast = system: MCF7 breast
A549 NSCLC = system: A549 NSCLC
DU-145 prostate = system: DU-145 prostate
HOP-92 NSCLC = system: HOP-92 NSCLC
OVCAR-8 ovarian = system: OVCAR-8 ovarian
UACC-62 melanoma = system: UACC-62 melanoma
SR leukemia = system: SR leukemia
CCRF-CEM leukemia = system: CCRF-CEM leukemia
SNB-75 CNS = system: SNB-75 CNS
COLO 205 colon = system: COLO 205 colon
M14 melanoma = system: M14 melanoma
IGROV1 ovarian = system: IGROV1 ovarian
MDA-MB-231 breast = system: MDA-MB-231 breast
T-47D breast = system: T-47D breast
SF-268 CNS = system: SF-268 CNS
HCT-15 colon = system: HCT-15 colon
SNB-19 CNS = system: SNB-19 CNS
MALME-3M melanoma = system: MALME-3M melanoma
LOX IMVI melanoma = system: LOX IMVI melanoma
NCI-H23 lung = system: NCI-H23 lung
TK-10 renal = system: TK-10 renal
NCI/ADR-RES ovarian = system: NCI/ADR-RES ovarian
SK-MEL-28 melanoma = system: SK-MEL-28 melanoma
NCI-H522 lung = system: NCI-H522 lung
SK-OV-3 ovarian = system: SK-OV-3 ovarian
SW-620 colon = system: SW-620 colon
UO-31 renal = system: UO-31 renal
MDA-MB-435 = system: MDA-MB-435
MOLT-4 leukemia = system: MOLT-4 leukemia
786-0 renal = system: 786-0 renal
NCI-H226 lung = system: NCI-H226 lung
SN12C renal = system: SN12C renal
HL-60(TB) leukemia = system: HL-60(TB) leukemia
ACHN renal = system: ACHN renal
NCI-H460 lung = system: NCI-H460 lung
OVCAR-4 ovarian = system: OVCAR-4 ovarian
HT29 colon = system: HT29 colon
HCT-116 colon = system: HCT-116 colon
KM12 colon = system: KM12 colon
BT-549 breast = system: BT-549 breast
HS 578T breast = system: HS 578T breast
SF-295 CNS = system: SF-295 CNS
HCC-2998 colon = system: HCC-2998 colon

Measured: TGI

CN1C(NC#N)=NP(=O)(O)C1(C)C
> 100 µM: NCI-H322M lung | MDA-N | SF-539 CNS | OVCAR-3 ovarian | A498 renal | OVCAR-5 ovarian | RPMI-8226 leukemia | HOP-62 NSCLC | K-562 leukemia | SK-MEL-5 melanoma | U251 CNS | PC-3 prostate | MCF7 breast | A549 NSCLC | DU-145 prostate | HOP-92 NSCLC | OVCAR-8 ovarian | UACC-62 melanoma | SR leukemia | CCRF-CEM leukemia | SNB-75 CNS | COLO 205 colon | M14 melanoma | IGROV1 ovarian | MDA-MB-231 breast | T-47D breast | SF-268 CNS | HCT-15 colon | SNB-19 CNS | MALME-3M melanoma | LOX IMVI melanoma | NCI-H23 lung | TK-10 renal | NCI/ADR-RES ovarian | SK-MEL-28 melanoma | NCI-H522 lung | SK-OV-3 ovarian | SW-620 colon | UO-31 renal | MDA-MB-435 | MOLT-4 leukemia | 786-0 renal | NCI-H226 lung | SN12C renal | HL-60(TB) leukemia | ACHN renal | NCI-H460 lung | OVCAR-4 ovarian | HT29 colon | HCT-116 colon | KM12 colon | BT-549 breast | HS 578T breast | SF-295 CNS | HCC-2998 colon
